Assay results as given in EP4840849A1, “BIPHENYL COMPOUND, PREPARATION METHOD THEREFOR, AND INTERMEDIATE, PHARMACEUTICAL COMPOSITION AND USE THEREOF” (dated 2026).
pEC50: −log10 of the molar value.

Sequences of proteins named here, by UniProt entry; tags and fusion partners are left off.
UniProt P10276, whole entry: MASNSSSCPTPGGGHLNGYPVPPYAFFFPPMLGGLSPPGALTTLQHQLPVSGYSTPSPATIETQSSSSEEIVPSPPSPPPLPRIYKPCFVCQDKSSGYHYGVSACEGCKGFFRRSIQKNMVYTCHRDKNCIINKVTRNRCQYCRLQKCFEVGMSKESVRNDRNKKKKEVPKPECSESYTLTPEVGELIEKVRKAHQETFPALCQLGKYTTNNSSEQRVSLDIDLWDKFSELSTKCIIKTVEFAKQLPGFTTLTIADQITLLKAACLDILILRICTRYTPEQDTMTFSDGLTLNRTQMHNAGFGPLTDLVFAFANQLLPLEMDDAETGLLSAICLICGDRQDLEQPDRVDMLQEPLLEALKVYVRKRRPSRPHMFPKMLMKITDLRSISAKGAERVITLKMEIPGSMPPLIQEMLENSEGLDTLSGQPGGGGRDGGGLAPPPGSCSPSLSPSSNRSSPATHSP
UniProt P10826, whole entry: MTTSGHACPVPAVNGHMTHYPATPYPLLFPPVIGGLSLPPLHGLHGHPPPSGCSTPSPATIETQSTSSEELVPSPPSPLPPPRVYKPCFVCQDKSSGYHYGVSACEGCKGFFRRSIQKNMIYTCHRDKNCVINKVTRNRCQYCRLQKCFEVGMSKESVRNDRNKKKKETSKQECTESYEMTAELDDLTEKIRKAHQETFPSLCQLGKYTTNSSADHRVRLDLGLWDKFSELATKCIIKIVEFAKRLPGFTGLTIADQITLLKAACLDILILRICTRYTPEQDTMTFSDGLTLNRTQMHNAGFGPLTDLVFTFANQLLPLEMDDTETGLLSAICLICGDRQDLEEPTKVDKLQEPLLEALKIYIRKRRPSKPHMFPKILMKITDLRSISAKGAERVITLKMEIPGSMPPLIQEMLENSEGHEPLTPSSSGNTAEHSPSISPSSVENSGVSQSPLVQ
UniProt P13631, whole entry: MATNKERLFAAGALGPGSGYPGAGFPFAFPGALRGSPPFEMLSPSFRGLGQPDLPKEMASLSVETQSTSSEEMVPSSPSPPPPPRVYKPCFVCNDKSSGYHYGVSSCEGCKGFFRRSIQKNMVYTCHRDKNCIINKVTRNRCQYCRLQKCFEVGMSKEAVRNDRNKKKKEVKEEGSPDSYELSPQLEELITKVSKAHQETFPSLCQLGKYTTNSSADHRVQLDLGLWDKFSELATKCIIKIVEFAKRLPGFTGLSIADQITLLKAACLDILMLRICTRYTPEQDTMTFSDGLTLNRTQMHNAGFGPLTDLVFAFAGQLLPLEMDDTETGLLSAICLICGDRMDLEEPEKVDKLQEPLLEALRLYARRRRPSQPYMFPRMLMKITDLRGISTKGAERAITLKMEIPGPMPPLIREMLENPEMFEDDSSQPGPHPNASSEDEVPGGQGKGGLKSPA

How the values were obtained:
RARα = RARα (Homo sapiens, UniProt P10276); assay: HEK-293 RARα luciferase reporter gene agonist assay; conditions: for α/γ ratio: ratio of RARα EC50 to RARγ EC50; for pEC50: read-out: RAR α EC50, HEK293 cells transfected with pBIND-RARα and pG5 Luc, 24 h treatment, EC50 > maximum test concentration when maximum activation rate is less than 50% of retinoic acid Max well
RARβ = RARβ (Homo sapiens, UniProt P10826); assay: HEK-293 RARβ luciferase reporter gene agonist assay; conditions: for β/γ ratio: ratio of RARβ EC50 to RARγ EC50; for pEC50: read-out: RAR β EC50, HEK293 cells transfected with pBIND-RARβ and pG5 Luc, 24 h treatment, EC50 > maximum test concentration when maximum activation rate is less than 50% of retinoic acid Max well
RARγ = RARγ (Homo sapiens, UniProt P13631); assay: HEK-293 RARγ luciferase reporter gene agonist assay; conditions: read-out: RAR γ EC50; HEK293 cells transfected with pBIND-RARγ and pG5 Luc, 24 h treatment

| α/γ ratio (RARα) | pEC50 (RARα) | β/γ ratio (RARβ) | pEC50 (RARβ) | pEC50 (RARγ) | SMILES |
| --- | --- | --- | --- | --- | --- |
| >333.3 | < 5.22 | >333.3 | < 5.22 | 7.74 | CC1(C)C[C@H]2CCCN2c2ccc(-c3cc(-c4ccc(C(=O)O)cc4)ccc3OCCO)cc21 |
| >1244.8 | < 5.22 | >1244.8 | < 5.22 | 8.32 | C[C@H]1CC(C)(C)c2cc(-c3cc(-c4ccc(C(=O)O)cc4)ccc3OCCO)ccc2N1C |
| >2643.2 | < 5.22 | >2643.2 | < 5.22 | 8.64 | CCN1CCC(C)(C)c2cc(-c3cc(-c4ccc(C(=O)O)cc4)ccc3OCCO)ccc21 |
| >398.9 | < 5.22 | >398.9 | < 5.22 | 7.82 | CC1(C)C[C@@H]2CCCN2c2ccc(-c3cc(-c4ccc(C(=O)O)cc4)ccc3OCCO)cc21 |
| >16216.2 | < 5.22 | >16216.2 | < 5.22 | 9.43 | CN1CCC(C)(C)c2cc(-c3cc(-c4ccc(C(=O)O)cc4)ccc3OCCO)ccc21 |
